Results published in patent US7192924B2, “Corticotropin releasing factor 2 receptor agonists” (priority 2002, dated 2007).
Read-outs that look alike come from different tables or passages of the source.

Experiments:
[1] = molecular target: T1, CRF2R (Homo sapiens, UniProt Q13324); experiment: CRF2R agonist activity (EC50, Emax), called comparative CRF binding; assay type: cell-based
T1 sequence (Q13324 1-411): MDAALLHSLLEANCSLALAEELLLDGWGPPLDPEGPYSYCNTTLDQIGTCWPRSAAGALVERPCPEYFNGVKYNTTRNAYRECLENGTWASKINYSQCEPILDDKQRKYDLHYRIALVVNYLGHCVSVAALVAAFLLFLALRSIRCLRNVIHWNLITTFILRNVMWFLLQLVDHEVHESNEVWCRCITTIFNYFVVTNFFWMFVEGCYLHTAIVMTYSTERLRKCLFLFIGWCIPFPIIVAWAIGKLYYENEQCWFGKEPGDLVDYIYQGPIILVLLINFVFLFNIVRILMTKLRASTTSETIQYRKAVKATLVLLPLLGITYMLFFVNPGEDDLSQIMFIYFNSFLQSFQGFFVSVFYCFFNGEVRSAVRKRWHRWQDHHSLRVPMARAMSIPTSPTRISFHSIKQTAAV
Excerpt: (§1) The pharmacological activity and selectivity of the peptides of present invention can be determined using published test procedures. See, e.g, U.S. patent application Ser. No. 09/799,978. Because CRF2R and CRF1R are homologous proteins, it is expected that a certain proportion of agonists for CRF2R will also function as agonists of CRF1R. As discussed above, activation of CRF1R induces activation of the HPA axis since increased corticosteroid production leads to skeletal muscle atrophy. In most cases in which an increase in muscle mass or function is desired, it is not desirable to activate the HPA axis.
(§2) Because it is desirable to discriminate binding between CRF2R, as compared with CRF1R, the assays described above may be conducted using a cell, or membrane from a cell, which expresses only CRF2R or the assays can be conducted with a recombinant source of CRF2R. Cells expressing both forms of CRFR may be modified using homologous recombination to inactivate or otherwise disable the CRF1R gene. Alternatively, if the source of CRFR contains more than one CRFR type, the background signal produced by the receptor which is not of interest must be subtracted from the signal obtained in the assay. […] Known antagonists of CRFRs include, but, are not limited to, antalarmin (CRF1R selective), antisauvagine-30 (CRF2R selective) and astressin (nonselective for CRF1R/CRF2R).
(§3) Cell-based assays include the steps of contacting cells which express CRF1R or CRF2R with a peptide of the present invention or control and measuring activation of the CRFR by measuring the expression or activity of components of the CRFR signal transduction pathways.
(§4) As described in the background section above, CRFRs appear to couple through several different pathways including Gαs, Gαq or Gαi, depending upon the cell type. It is thought that agonist activation of CRFR allows the receptor to signal via any of these pathways, provided that the necessary pathway components are present in the particular cell type. Thus, to assay a particular peptide of the present invention for CRFR activation, an assay can use any of the signal transduction pathways as the readout even if the relevant cell type for treatment, in vivo, couples CRFR to skeletal muscle atrophy via a different pathway. […] Assays for measuring activation of these signaling pathways are known in the art.
(§5) For example, after contact with a peptide of the present invention, lysates of the cells can be prepared and assayed for induction of cAMP. cAMP is induced in response to Gαs activation. Because Gαs is activated by receptors other than CRFR and because a test peptide may be exerting its effect through CRFRs or by another mechanism, two control comparisons are relevant for determining whether the peptide increases levels of cAMP via activation of a CRFR. One control compares the cAMP level of cells contacted with the peptide and the cAMP level of cells contacted with a control compound (i.e., the vehicle in which the peptide is dissolved).
(§6) In one example, cAMP induction is measured with the use of DNA constructs containing the cAMP responsive element linked to any of a variety of reporter genes can be introduced into cells expressing CRFRs. Such reporter genes include, but are not limited to, chloramphenicol acetyltransferase (CAT), luciferase, glucuronide synthetase, growth hormone, fluorescent proteins (e.g., Green Fluorescent Protein), or alkaline phosphatase. Following exposure of the cells to the peptide, the level of reporter gene expression can be quantitated to determine the peptide's ability to increase cAMP levels and thus determine the peptide's ability to activate the CRFR.
(§7) In addition to using cells expressing full length CRFRs, cells can be engineered which express CRFRs containing the ligand binding domain of the receptor coupled to, or physically modified to contain, reporter elements or to interact with signaling proteins.

[2] = molecular target: T2, CRF1R (Homo sapiens, UniProt P34998); experiment: CRF1R agonist activity (EC50, Emax), called comparative CRF binding; assay type: cell-based
T2 sequence (P34998 24-415): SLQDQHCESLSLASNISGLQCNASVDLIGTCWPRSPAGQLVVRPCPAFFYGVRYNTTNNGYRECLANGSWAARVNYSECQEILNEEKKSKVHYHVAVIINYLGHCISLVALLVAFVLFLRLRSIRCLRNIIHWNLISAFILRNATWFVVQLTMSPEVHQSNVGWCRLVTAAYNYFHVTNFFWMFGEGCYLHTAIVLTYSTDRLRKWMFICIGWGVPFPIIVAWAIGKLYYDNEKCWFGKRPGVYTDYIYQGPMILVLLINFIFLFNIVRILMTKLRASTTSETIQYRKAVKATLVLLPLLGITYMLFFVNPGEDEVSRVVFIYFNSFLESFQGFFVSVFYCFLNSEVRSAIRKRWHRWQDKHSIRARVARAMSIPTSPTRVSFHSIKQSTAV
Excerpt: as §1, §2, §3, §4, §5, §6, §7

| Structure (SMILES) | EC50 [1] [nM] | EC50 [2] [nM] | EC50 ([1]; read-out: CRF2R EC50) [nM] | EC50 ([2]; read-out: CRF1R EC50) [nM] |
| --- | --- | --- | --- | --- |
| CC[C@H](C)[C@H](NC(=O)[C@@H](NC(=O)[C@H](C)NC(=O)[C@H](CC(C)C)NC(=O)[C@H](CC(C)C)NC(=O)[C@H](CC(C)C)NC(=O)[C@H](C)NC(=O)[C@H](CC(N)=O)NC(=O)[C@H](CC(N)=O)NC(=O)[C@H](C)NC(=O)[C@H](C)NC(=O)[C@H](CCC(N)=O)NC(=O)[C@H](CCC(N)=O)NC(=O)[C@H](CCCCN)NC(=O)[C@H](CCC(=O)O)NC(=O)[C@H](CCCCN)NC(=O)[C@H](CCC(=O)O)NC(=O)[C@H](CCC(N)=O)NC(=O)[C@H](CCCCN)NC(=O)[C@H](CCC(=O)O)NC(=O)[C@@H](NC(=O)[C@H](CCC(=O)O)NC(=O)[C@@H](NC(=O)[C@H](CCSC)NC(=O)[C@H](CCCCN)NC(=O)[C@H](CCCNC(=N)N)NC(=O)[C@H](CC(C)C)NC(=O)[C@H](CC(C)C)NC(=O)[C@H](CCC(=O)O)NC(=O)[C@H](CC(C)C)NC(=O)[C@H](CO)NC(=O)[C@H](CC(C)C)NC(=O)[C@H](CC(=O)O)NC(=O)[C@@H](NC(=O)[C@H](CO)NC(=O)[C@@H](NC(=O)[C@@H]1CCCN1C(=O)[C@@H]1CCCN1C(=O)CNC(=O)[C@@H]1CCC(=O)N1)[C@@H](C)CC)[C@@H](C)CC)[C@@H](C)CC)[C@@H](C)CC)[C@@H](C)O)C(N)=O [compound 30] | 18.7 | 100 |  |  |
| CC[C@H](C)[C@H](NC(=O)[C@@H](NC(=O)[C@H](CC(=O)O)NC(=O)[C@H](CC(C)C)NC(=O)[C@H](CC(C)C)NC(=O)[C@H](CC(C)C)NC(=O)[C@H](CCCNC(=N)N)NC(=O)[C@H](CC(N)=O)NC(=O)[C@H](CC(N)=O)NC(=O)[C@H](C)NC(=O)[C@H](C)NC(=O)[C@H](CCC(N)=O)NC(=O)[C@H](CCC(N)=O)NC(=O)[C@H](CCCCN)NC(=O)[C@H](CCC(=O)O)NC(=O)[C@H](CCCCN)NC(=O)[C@H](CCC(=O)O)NC(=O)[C@H](CCC(N)=O)NC(=O)[C@H](CCCCN)NC(=O)[C@H](CCC(=O)O)NC(=O)[C@@H](NC(=O)[C@H](CCC(=O)O)NC(=O)[C@@H](NC(=O)[C@H](CCSC)NC(=O)[C@H](CCCCN)NC(=O)[C@H](CCCNC(=N)N)NC(=O)[C@H](CC(C)C)NC(=O)[C@H](CC(C)C)NC(=O)[C@H](Cc1ccc(O)cc1)NC(=O)[C@H](C)NC(=O)[C@@H]1CCCN1C(=O)[C@H](CC(C)C)NC(=O)[C@H](CC(=O)O)NC(=O)[C@@H](NC(=O)[C@H](CO)NC(=O)[C@@H](NC(=O)[C@@H]1CCCN1C(=O)[C@@H]1CCCN1C(=O)CNC(=O)[C@@H]1CCC(=O)N1)[C@@H](C)CC)[C@@H](C)CC)[C@@H](C)CC)[C@@H](C)CC)[C@@H](C)O)C(N)=O [compound 32] |  |  | 20.2 | 606 |
| CC[C@H](C)[C@H](NC(=O)[C@@H](NC(=O)[C@H](CC(=O)O)NC(=O)[C@H](CC(C)C)NC(=O)[C@H](CC(C)C)NC(=O)[C@H](CC(C)C)NC(=O)[C@H](CCCNC(=N)N)NC(=O)[C@H](CC(N)=O)NC(=O)[C@H](CC(N)=O)NC(=O)[C@H](C)NC(=O)[C@H](C)NC(=O)[C@H](CCC(N)=O)NC(=O)[C@H](CCC(N)=O)NC(=O)[C@H](CCCCN)NC(=O)[C@H](CCC(=O)O)NC(=O)[C@H](CCCCN)NC(=O)[C@H](CCC(=O)O)NC(=O)[C@H](CCC(N)=O)NC(=O)[C@H](CCCCN)NC(=O)[C@H](CCC(=O)O)NC(=O)[C@@H](NC(=O)[C@H](CCC(=O)O)NC(=O)[C@@H](NC(=O)[C@H](CCSC)NC(=O)[C@H](CCCCN)NC(=O)[C@H](CCCNC(=N)N)NC(=O)[C@H](CC(C)C)NC(=O)[C@H](CC(C)C)NC(=O)[C@H](CC(C)C)NC(=O)[C@@H](NC(=O)[C@@H]1CCCN1C(=O)[C@H](CC(C)C)NC(=O)[C@H](CC(=O)O)NC(=O)[C@@H](NC(=O)[C@H](CO)NC(=O)[C@@H](NC(=O)[C@@H]1CCCN1C(=O)[C@@H]1CCCN1C(=O)CNC(=O)[C@@H]1CCC(=O)N1)[C@@H](C)CC)[C@@H](C)CC)[C@@H](C)CC)[C@@H](C)CC)[C@@H](C)CC)[C@@H](C)O)C(N)=O [compound 35] |  |  | 15.6 | > 1000 |
| CC[C@H](C)[C@H](NC(=O)[C@@H](NC(=O)[C@H](CC(=O)O)NC(=O)[C@H](CC(C)C)NC(=O)[C@H](CC(C)C)NC(=O)[C@H](CC(C)C)NC(=O)[C@H](CCCNC(=N)N)NC(=O)[C@H](CC(N)=O)NC(=O)[C@H](CC(N)=O)NC(=O)[C@H](C)NC(=O)[C@H](C)NC(=O)[C@H](CCC(N)=O)NC(=O)[C@H](CCC(N)=O)NC(=O)[C@H](CCCCN)NC(=O)[C@H](CCC(=O)O)NC(=O)[C@H](CCCCN)NC(=O)[C@H](CCC(=O)O)NC(=O)[C@H](CCC(N)=O)NC(=O)[C@H](CCCCN)NC(=O)[C@H](CCC(=O)O)NC(=O)[C@@H](NC(=O)[C@H](CCC(=O)O)NC(=O)[C@@H](NC(=O)[C@H](CCSC)NC(=O)[C@H](CCCCN)NC(=O)[C@H](CCCNC(=N)N)NC(=O)[C@H](CC(C)C)NC(=O)[C@H](CC(C)C)NC(=O)[C@@H](NC(=O)[C@@H](NC(=O)[C@@H]1CCCN1C(=O)[C@H](CC(C)C)NC(=O)[C@H](CC(=O)O)NC(=O)[C@@H](NC(=O)[C@H](CO)NC(=O)[C@@H](NC(=O)[C@@H]1CCCN1C(=O)[C@@H]1CCCN1C(=O)CNC(=O)[C@@H]1CCC(=O)N1)[C@@H](C)CC)[C@@H](C)CC)[C@@H](C)CC)[C@@H](C)CC)[C@@H](C)CC)[C@@H](C)CC)[C@@H](C)O)C(N)=O [compound 36] |  |  | 14.8 | > 1000 |
| CC[C@H](C)[C@H](NC(=O)[C@@H](NC(=O)[C@H](CC(=O)O)NC(=O)[C@H](CC(C)C)NC(=O)[C@H](CC(C)C)NC(=O)[C@H](CC(C)C)NC(=O)[C@H](CCCNC(=N)N)NC(=O)[C@H](CC(N)=O)NC(=O)[C@H](CC(N)=O)NC(=O)[C@H](C)NC(=O)[C@H](C)NC(=O)[C@H](CCC(N)=O)NC(=O)[C@H](CCC(N)=O)NC(=O)[C@H](CCCCN)NC(=O)[C@H](CCC(=O)O)NC(=O)[C@H](CCCCN)NC(=O)[C@H](CCC(=O)O)NC(=O)[C@H](CCC(N)=O)NC(=O)[C@H](CCCCN)NC(=O)[C@H](CCC(=O)O)NC(=O)[C@@H](NC(=O)[C@H](CCC(=O)O)NC(=O)[C@@H](NC(=O)[C@H](CCSC)NC(=O)[C@H](CCCCN)NC(=O)[C@H](CCCNC(=N)N)NC(=O)[C@H](CC(C)C)NC(=O)[C@H](CC(C)C)NC(=O)[C@H](Cc1ccc(O)cc1)NC(=O)[C@@H](NC(=O)[C@@H]1CCCN1C(=O)[C@H](CC(C)C)NC(=O)[C@H](CC(=O)O)NC(=O)[C@@H](NC(=O)[C@H](CO)NC(=O)[C@@H](NC(=O)[C@@H]1CCCN1C(=O)[C@@H]1CCCN1C(=O)CNC(=O)[C@@H]1CCC(=O)N1)[C@@H](C)CC)[C@@H](C)CC)C(C)C)[C@@H](C)CC)[C@@H](C)CC)[C@@H](C)O)C(N)=O [compound 39] | 58.2 | ≥ 1000 |  |  |
